Experimental findings from BindingDB's records for 10753470 are described below.

This experiment has as its target Kappa-type opioid receptor (Homo sapiens, UniProt P41145). As to the kind of experiment: Competitive binding displacement analyses was performed from permanently transfected HEK293 cells expressing Opioid receptor kappa 1.

`O=C1NCN(c2ccccc2)C12CCN(C1Cc3cccc4cccc1c34)CC2` (stereo unspecified) yielded an inhibition constant Ki of 26 nM.

The term Ki denotes the equilibrium dissociation constant of an inhibitor or competing ligand from its target. Read a low Ki as higher affinity.
